Earlier results on one substance are cited in patent publication US6355675B1, “Emulsifiable concentrate of a water-insoluble fungicide” (ISP Investments Inc., priority 2001, dated 2002).

As for “Methoxyimino-{2-[3-(trifluoromethyl-phenyl)-ethylideneamino-oxymethyl]-phenyl}-acetic acid methyl ester [CGA 279202]”, the water solubility is listed as 0.6 ppm.
